The record followed here is patent US7732437B2, “Use of anti-histaminics for acute reduction of elevated intracranial pressure” (Janssen Pharmaceutica, NV., priority 2001, dated 2010).

Chains of the proteins cited; added tags and fusions are not shown.
UniProt P47747, whole entry: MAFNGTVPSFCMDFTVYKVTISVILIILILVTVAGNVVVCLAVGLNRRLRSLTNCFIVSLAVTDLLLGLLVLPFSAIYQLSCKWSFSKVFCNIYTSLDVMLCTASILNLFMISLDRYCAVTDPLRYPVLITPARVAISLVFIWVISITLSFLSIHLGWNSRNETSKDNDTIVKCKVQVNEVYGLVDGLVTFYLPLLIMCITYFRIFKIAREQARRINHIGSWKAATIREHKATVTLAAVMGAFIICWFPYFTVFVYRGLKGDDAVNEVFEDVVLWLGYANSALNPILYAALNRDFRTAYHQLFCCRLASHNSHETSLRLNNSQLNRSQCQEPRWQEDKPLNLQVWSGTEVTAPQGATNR

The structures appear in SMILES notation.

The target of the experiment is T1, histamine H2-receptor (Cavia porcellus, UniProt P47747).
T1 construct: using guinea pig striatum cells and [^125I]APT as the radioligand; from tissue; host or cells: guinea pig striatum
In words: Radioligand binding, histamine H2-receptor, guinea pig striatum cells, [125I]APT. As to conditions: [125I]APT 0.1 nM, 150 min at 22° C., read-out: H2-antagonist activity (pIC50) (converted).

As for `CN/C(=N/CCSCc1nc[nH]c1C)NC#N` [Cimetidine, cimetidine], the IC50 is 1260 nM.
